Source: article PMC6443996 (FEBS Open Bio, 2019)

Target: CNOT1 (MIF4G and DUF3819 domains; […]) (human)
Assay: reconstitution of a complex from purified parts; pentameric central module reconstituted after separate expression and purification of the nuclease module and the CNOT1-CNOT9 dimeric complex; 14% SDS/PAGE, Coomassie Brilliant Blue
Settings: both partners purified

B1: Caf1 (D40A) (enzyme)
chain: not shown
notes: also called CNOT7 D40A
binding result: binds
